{"sequences": {"note": "Protein sequences, listed by entry. Tags and fused reporters are not part of them. Lines headed by an entry give the natural chain unless they say otherwise; changes in a name come on top.", "UniProt P19327, whole entry": "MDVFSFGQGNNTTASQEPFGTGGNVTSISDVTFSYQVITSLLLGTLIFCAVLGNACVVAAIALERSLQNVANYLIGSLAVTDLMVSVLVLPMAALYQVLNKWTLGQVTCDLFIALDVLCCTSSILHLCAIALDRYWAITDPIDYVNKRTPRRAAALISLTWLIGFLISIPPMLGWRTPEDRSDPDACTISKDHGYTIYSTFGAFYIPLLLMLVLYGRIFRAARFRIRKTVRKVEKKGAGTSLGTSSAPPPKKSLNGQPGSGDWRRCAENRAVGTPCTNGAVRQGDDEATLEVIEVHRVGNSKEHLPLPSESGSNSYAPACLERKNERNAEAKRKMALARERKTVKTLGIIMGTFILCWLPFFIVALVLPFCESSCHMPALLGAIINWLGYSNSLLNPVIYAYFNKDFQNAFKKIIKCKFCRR", "UniProt P35563, whole entry": "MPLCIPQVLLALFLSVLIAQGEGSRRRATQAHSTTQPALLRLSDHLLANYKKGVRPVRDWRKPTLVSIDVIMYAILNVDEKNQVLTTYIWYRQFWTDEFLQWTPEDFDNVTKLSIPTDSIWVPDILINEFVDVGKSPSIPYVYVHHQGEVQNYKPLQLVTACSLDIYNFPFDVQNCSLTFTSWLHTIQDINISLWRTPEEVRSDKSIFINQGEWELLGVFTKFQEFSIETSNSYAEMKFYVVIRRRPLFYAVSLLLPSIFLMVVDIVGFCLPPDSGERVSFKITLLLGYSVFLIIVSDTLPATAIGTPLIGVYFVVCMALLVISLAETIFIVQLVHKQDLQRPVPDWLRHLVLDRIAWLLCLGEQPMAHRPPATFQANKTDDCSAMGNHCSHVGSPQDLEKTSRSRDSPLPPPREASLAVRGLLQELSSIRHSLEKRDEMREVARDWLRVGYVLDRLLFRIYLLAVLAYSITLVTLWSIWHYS", "UniProt Q9JJ16": "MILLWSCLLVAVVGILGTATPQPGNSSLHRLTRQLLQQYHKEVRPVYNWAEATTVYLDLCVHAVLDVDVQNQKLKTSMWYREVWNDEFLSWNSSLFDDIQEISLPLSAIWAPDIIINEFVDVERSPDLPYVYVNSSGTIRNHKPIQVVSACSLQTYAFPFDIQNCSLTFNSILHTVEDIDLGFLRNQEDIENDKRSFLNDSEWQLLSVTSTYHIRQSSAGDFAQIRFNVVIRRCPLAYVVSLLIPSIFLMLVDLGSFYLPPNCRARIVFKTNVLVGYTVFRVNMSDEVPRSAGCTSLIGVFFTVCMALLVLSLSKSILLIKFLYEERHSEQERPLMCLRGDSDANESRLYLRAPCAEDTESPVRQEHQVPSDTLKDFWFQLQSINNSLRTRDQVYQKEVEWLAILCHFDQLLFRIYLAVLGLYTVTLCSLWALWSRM"}, "source": "ChEMBL document CHEMBL1128467", "about": "“Novel, potent, and selective 5-HT3 receptor antagonists based on the arylpiperazine skeleton: synthesis, structure, biological activity, and comparative molecular field analysis studies” (J Med Chem, 1995)", "key": {"[1]": {"molecular_target": "5-hydroxytryptamine receptor 1A (Rattus norvegicus, UniProt P19327)", "assay": "The compound was tested for their binding affinity towards 5-hydroxytryptamine 1A receptor from rat hippocampus using [3H]8-OH-DPAT as radioligand.", "assay_type": "tissue-based"}, "[2]": {"molecular_target": "Serotonin 3 (5-HT3) receptor (Rattus norvegicus, UniProt P35563+Q9JJ16)", "assay": "Binding affinity for 5-hydroxytryptamine 3 receptor from rat cortex using [3H]BRL-43694 as radioligand"}}, "note": "pKi: −log10 of the molar value."}
{"smiles": "NCCc1c[nH]c2ccc(O)cc12", "note": "[SEROTONIN]", "values": [{"measurement": "pKi", "setting": "[1]", "result": 8.68}, {"measurement": "pKi", "setting": "[2]", "result": 7.18}]}
